Measurements as given in patent US20260176659A1, “IMPROVED METHOD FOR THE PRODUCTION OF NATURAL VANILLIN” (BASE SE, priority 2022, published 2026).

Assay: Bioconversion of eugenol to vanillin: one-pot concurrent cascade EUGO + alkene cleavage oxygenase (5 mM scale)
Format: biochemical
Settings: Table 8b, EUGO FD-CFE 1 mg/mL, CO-0X FD-CFE 1 mg/mL, catalase 10 mg/mL, eugenol 5 mM
Procedure: Stock solutions of eugenol (100 mM) were prepared in ethanol or DMSO and stored at −20° C. Unless otherwise stated, the reaction mixtures (0.5 mL) were set up in 1.5 mL glass vials as follows: freeze-dried cell free extract of IECO/CO-XX (3 mg) and EUGO (0.5 mg) were dissolved in the reaction buffer (50 mM glycine-NaOH pH 9.0) containing sodium ascorbate (1 mM), FeSO4 (1 mM) and bovine liver catalase (5 mg, Sigma Aldrich C40). The reaction was initiated by the addition of 0.025 mL eugenol stock (final concentration 5 mM), then incubated at 30° C. and 120 rpm overnight (rotary shaker). The final content of cosolvent was 5% v/v. To improve oxygenation, the vials were placed horizontally. At certain time points, samples (0.2 mL) were quenched with methanol (0.4 mL) and the mixture was centrifuged at 20238 g for 5-10 mins. Finally, the supernatant was analysed by HPLC.
EUGO (0.5 mg CFE), CO-25 (3 mg CFE) and catalase (5 mg, Sigma product #C40) were dissolved in 50 mM Glycine-NaOH pH 9.0 or Tris-HCl pH 8.0 together with FeSO4 (1 mM) and sodium ascorbate (1 mM). Note that the buffer content of the freeze-dried biocatalyst prep was not considered for the assembling of the reaction. The reaction was started by the addition of 5 mM eugenol from a 20× stock in ethanol. The reactions—performed in glass vials—were then incubated at 30° C. and 120 rpm (25 mm shaker). Finally, samples of the reaction mixture were diluted with MeOH and analyzed by HPLC at 280 and 340 nm. […] From 5 mM eugenol in 0.5 mL scale reaction, we obtained 83-88% conversion to vanillin 3a (Table 9).

Product distribution after 24 hours 2a (%) (pH 8.0): 78.9%
Product distribution after 24 hours 3a (%) (pH 8.0): 5.1%
Product distribution after 24 hours 5a (%) (pH 8.0): 16.0%
Product distribution after 24 hours 2a (%) (pH 9.0): 73.9%
Product distribution after 24 hours 3a (%) (pH 9.0): 4.0%
Product distribution after 24 hours 5a (%) (pH 9.0): 22.1%
B1: CO-14: alkene cleavage oxygenase, Caulobacter segnis, SEQ ID NO: 66 (protein, listed as Caulobacter segnis)
chain: MGIRFPNNDFKNFEAPMRAEIDLAGLEVVQGEVPKELSGGFFRLIGDRKWPAFVENDIFMLGEDGMASCFYFKDGRVDFKMRYVRTPRFVAEEKAGRALFGEYRNPFTDDPSVAGLSRGTANVTMLAHAGKLFAMKEDSPVIEMDPFTLETIGEYDWGGAVTAKAITAHPKIDPRTGELIFFGYCAAGPATRDVAYYEADAEGRIIHEAWFKAPYTCMVHDIMVTEHYVVFPITPLRHELEWIERREPAFKWDPNEEVYLGVLPRKGNGDQIRWFKGPNQCHGHTVGAFDDGRYIYADNTFSKRSFFHFFPNVDGSAFSPADTMPYMKRIVIDMESEGDHFTEQKLFEYPCELPRIDTRFETMDYNFVTMNLLDVPGQERVGHGFQWVATMDVNGNKPSKIYYAGDDCSIGEPQFVPKSNDAPEGEGYILTVVGKHQEMRSELLILDASDINAPPVATVALPFRLRSTGHGYWYSTSQLLGETNVLGAS
